From publication PMC5577515, “Peptide‐Directed Binding for the Discovery of Modulators of α‐Helix‐Mediated Protein–Protein Interactions: Proof‐of‐Concept Studies with the Apoptosis Regulator Mcl‐1” (Angewandte Chemie (International Ed. in English), 2017)

The chains behind the UniProt entries cited, without tags or fusion partners. Where a name states a change or a piece, a line headed by the entry shows the natural chain unless it says otherwise. Residues count along the entry.
UniProt P97287, 152-189 limits assumed: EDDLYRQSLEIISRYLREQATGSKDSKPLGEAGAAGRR
UniProt Q07820, 209-327 limits assumed: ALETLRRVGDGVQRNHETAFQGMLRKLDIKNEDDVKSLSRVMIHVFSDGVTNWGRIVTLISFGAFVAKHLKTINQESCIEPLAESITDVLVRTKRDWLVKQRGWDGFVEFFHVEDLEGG
UniProt P10415: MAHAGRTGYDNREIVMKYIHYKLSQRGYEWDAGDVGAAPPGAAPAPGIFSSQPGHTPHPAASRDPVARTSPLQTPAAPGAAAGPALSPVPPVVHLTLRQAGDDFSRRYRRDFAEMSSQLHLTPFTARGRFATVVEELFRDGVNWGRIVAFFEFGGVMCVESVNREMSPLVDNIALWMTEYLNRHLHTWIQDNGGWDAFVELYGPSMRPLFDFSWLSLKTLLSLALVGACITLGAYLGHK

Assays:
Mcl-1 = biological target: T1, Mcl-1 (UniProt P97287+Q07820); experiment: Competitive fluorescence anisotropy (FA) assay, FITC-NoxaB displacement from Mcl-1; assay type: binding
T1 construct: amino acid residues 152-189 of mouse Mcl-1 fused with amino acid residues 209-327 of; 8 x His (N); TEV site (N); made in house; host or cells: E. coli BL21(DE3)pLysS
Experimental: Fmoc, 9-fluorenylmethylcarbony. IC50 determined by non -linear regression of at least three experiments.
4. Fluorescence Anisotropy Binding Assay
Fluorescence anisotropy was carried out on a BMG Labtech clariostar microplate reader with a fluorescence anisotropy optic measuring at 482/530 nm. Low -binding, Corning 96 -well black plates were used and all reagents used in the assay were biological grade and purchased from Sigma Aldrich and Novabioche m. All solutions were made using MilliQ water .
Anisotropy values were automatically calculated using the following formula […]
Where r = anisotropy, l a = parallel emission light, lb = perpendicular emission light and I = total […]
KD was determined using GraphPad Prism Version 6.0 software, using the One Site – Total binding […]
Where Bmax is the maximum specific binding, KD is the equilibrium binding constant, and NS is the slope of nonspecific binding. […]
IC50 was determined using GraphPad Prism Version 6.0 software, using a four-parameter logistic model, according to precedent from Ottmann and co-workers.[5] Errors are the transformed greater extreme of the standard error. […]
protein were dissolved in PBS: 0.05% Tween -20 buffer at pH 7.4. Reagents were incubated for 30 min at room temperature prior to reading. […]
Figure S 1: Fluorescence Anisotropy direct titration. […]

Bcl-2 = biological target: T2, Bcl-2 (Homo sapiens, UniProt P10415, DEL35-91/INS34DVEENRTEAPEGTESE); experiment: Competitive FA assay, FITC-Bid displacement from Bcl-2; assay type: binding
T2 construct: The Bcl-2 protein used in our study has the same construction as that used in the work of Fesik; purchased Dundee Cell Product Ltd
Experimental: For binding each well contained 10 µL of Bcl -2 protein in 10-fold dilutions (0.90 pM to 9.0 µM) […]
were dissolved in PBS: 0.05% Tween -20 buffer at pH 7.4. Reagents were incubated for 30 min at room temperature prior to reading. Bubbles were removed and 8 data points were generated.
Figure S 3: Fluorescence Anisotropy direct titration. […] Normalized […]
(1 picture or pasted object on this page, not shown here)

| IC50 (Mcl-1) | IC50 (Bcl-2) | SMILES |
| --- | --- | --- |
| 650 ± 130 nM |  | CC[C@H](C)[C@H](NC(=O)[C@H](CCCNC(=N)N)NC(=O)[C@H](CCCNC(=N)N)NC(=O)[C@H](CC(C)C)NC(=O)[C@H](CCC(N)=O)NC(=O)[C@H](C)NC(=O)[C@H](C)NC(C)=O)C(=O)NCC(=O)N[C@@H](CC(=O)O)C(=O)N[C@@H](CCCCN)C(=O)N[C@H](C(=O)N[C@@H](CC(N)=O)C(=O)N[C@@H](CC(C)C)C(=O)N[C@@H](CCCNC(=N)N)C(=O)N[C@@H](CCC(N)=O)C(=O)N[C@@H](CCCCN)C(=O)N[C@@H](CC(C)C)C(=O)N[C@@H](CC(C)C)C(=O)N[C@@H](CC(N)=O)C(N)=O)C(C)C [NoxaB, reference compound] |
|  | 349 nM | CC1(C)CCC(c2ccc(Cl)cc2)=C(CN2CCN(c3ccc(C(=O)NS(=O)(=O)c4ccc(N[C@H](CCN5CCOCC5)CSc5ccccc5)c(S(=O)(=O)C(F)(F)F)c4)cc3)CC2)C1 [ABT-263, reference compound] |
